These results are taken from patent publication US11767515B2, “Colonic organoids and methods of making and using same” (Children's Hospital Medical Center, priority 2016, dated 2023).

In one test the test system is organoid mesenchyme. The test is described as follows: Patterning markers in isolated organoid mesenchyme cultures (QPCR). The format is cell-based, human. As to conditions: mesenchymal cell cultures expanded for 2-3 weeks. Here is the method:
Growth of organoid mesenchyme. Mesenchymal cells from organoids which attach to the bottom of the 24-well plate attach and grow in 2 dimensions. To expand mesenchymal cells from organoids, DMEM 10% FBS+L-glutamine+ penicillin-streptomycin was added to wells from which organoids had been harvested at 14 days. Media was changed twice weekly for a total of 2-3 weeks until near 100% confluence was achieved.
(§1) RNA isolation and QPCR. RNA was extracted using Nucleospin® RNA extraction kit (Macharey-Nagel) and reverse transcribed into cDNA using Superscript VILO (Invitrogen) according to manufacturer's protocols. QPCR primers were designed using the qPrimerDepot webased tool (primerdepot.nci.nih.gov). QPCR was performed using Quantitect SYBR® Green PCR kit (Qiagen) and a QuantStudio™ 6 Flex Real-Time PCR System (Applied Biosystems).

Test [1] concerns human gut tube spheroids. As to the kind of experiment: HOX/MSX2 gene expression in patterned gut tube spheroids after 3 days (RNA-seq, QPCR). The format is cell-based. The method, then: Patterning midgut/hingut spheroids into HIOs and HCOs. Spheroids were collected from 24 well plate and plated in Matrigel (BD). To generate proximal HIOs, spheroids were overlayed with intestinal growth medium (Advanced DMEM/F-12, N2, B27, 15 mM HEPES, 2 mM L-glutamine, penicillin-streptomycin) supplemented with 100 ng/mL EGF (R&D) alone, or 100 ng/mL EGF with 100 ng/ml NOGGIN (R&D). To generate HCOs, spheroids were overlayed with 100 ng/mL EGF plus 100 ng/mL BMP (R&D). For SHH experiments, 1 pM SAG (Tocris), 5 pM SAG or 2.5 pM Cyclopamine (Tocris) were added to control media for initial 3 days after which RNA samples were collected. […]
RNA isolation and QPCR. […] QPCR was performed using Quantitect SYBR® Green PCR kit (Qiagen) and a QuantStudio™ 6 Flex Real-Time PCR System (Applied Biosystems).
RNA-seq sequence assembly abundance estimation. […] The quality of the Illumina sequencing run was evaluated by analyzing FASTQ data for each sample using FastQC version 0.10.1 http://www.bioinformatics.babraham.ac.uk/projects/fastqc to identify features of the data that may indicate quality problems (e.g. low-quality scores, over-represented sequences, inappropriate GC content, etc.). […] Briefly, Applicant aligned reads to the reference transcriptome (UCSC hg19) using TopHat version 2.0.13 and Bowtie version 2.2.5 (Langmead et al., 2009). […]

The subject of another test is transplanted organoids. As to the kind of experiment: Transplantation of patterned organoids under the mouse kidney capsule. The test is classed as in vivo. As to conditions: under the mouse kidney capsule for 6-10 weeks. Here is the method: Animals. Immune-deficient NOD-SCID IL-2Rynu” (NSG) mice, 8-16 weeks old, were used in transplantation experiments (obtained from the Comprehensive Mouse and Cancer Core Facility, Cincinnati, Ohio). Wild type mice were used for studies on mouse fetal intestine. All mice were housed in the animal facility at the Cincinnati Children's Hospital Medical Center (CCHMC). All experiments were performed with the approval of the Institutional Animal Care and Use Committee of CCHMC.
Transplantation of human intestinal organoids. NSG mice were kept on antibiotic chow (275 p.p.m. Sulfamethoxazole and 1.365 p.p.m. Trimethoprim; Test Diet). Food and water was provided ad libitum before and after surgeries. A single HIO, matured in vitro for 28 days, was removed from Matrigel, washed with cold phosphate-buffered saline (DPBS; Gibco), and embedded into purified type I collagen (rat tail collagen; BD Biosciences) 12 hours before surgery to allow for formation of a solidified gel plug. These plugs were then placed into standard growth media overnight in intestinal growth medium (Advanced DMEM/F-12, B27, 15 mM HEPES, 2 mM L-glutamine, penicillin-streptomycin) supplemented with 100 ng/mL EGF (R&D). […]
(§2) Tissue processing, immunofluorescence and microscopy. […] Images were captured on a Nikon A1 confocal microscope and analyzed using Imaris Imaging Software (Bitplane). […]

Test [2] concerns human intestinal organoids. The test is described as follows: Regional markers in organoids after prolonged in vitro culture (IF, QPCR). The format is cell-based. Here is the method:
Patterning midgut/hingut spheroids into HIOs and HCOs. Spheroids were collected from 24 well plate and plated in Matrigel (BD). To generate proximal HIOs, spheroids were overlayed with intestinal growth medium (Advanced DMEM/F-12, N2, B27, 15 mM HEPES, 2 mM L-glutamine, penicillin-streptomycin) supplemented with 100 ng/mL EGF (R&D) alone, or 100 ng/mL EGF with 100 ng/ml NOGGIN (R&D). To generate HCOs, spheroids were overlayed with 100 ng/mL EGF plus 100 ng/mL BMP (R&D). For SHH experiments, 1 pM SAG (Tocris), 5 pM SAG or 2.5 pM Cyclopamine (Tocris) were added to control media for initial 3 days after which RNA samples were collected. Media was changed at 3 days with only EGF being maintained in the media for all patterning conditions. Media was then changed twice weekly thereafter. HIOs and HCOs were replated in fresh Matrigel every 14 days.
Tissue processing, immunofluorescence and microscopy. Tissues were fixed for 1-3 hours in 4% paraformaldehyde (PFA) on ice depending on the size of the tissue. Organoids and transplant engraftments were frozen in OCT. OCT sections were blocked using donkey serum (5% serum in 1×PBS plus 0.5% Triton-X) for 30 min and incubated with primary antibody overnight at 4° C. Slides were then washed 3× with 1×PBS plus 0.5% Triton-X and incubated in secondary antibody with DAPI in blocking buffer for 2 h at room temperature. See Table 2 for a list of antibodies and respective dilutions. Slides were then washed 2× with 1×PBS plus 0.5% Triton-X followed by a final wash in 1×PBS. Coverslips were then mounted using Fluoromount-G® (SouthernBiotech). Images were captured on a Nikon A1 confocal microscope and analyzed using Imaris Imaging Software (Bitplane). For whole-mount staining, tissues were processed similarly as above and then cleared in Murray's solution. Imaging was performed with a Nikon A1 confocal microscope.
(§3) Quantification of immunofluorescence images. Image quantitation of whole embryos was done by splitting images into separated channels and then measuring pixel area using ImageJ (NIH). Pixel area was determined for each channel, the ratio between channels was determined and the ratio for control treated embryos was represented as 100. Quantitation of in vitro and in vivo grown organoids was done on sections from which images were captured as explained above. The number of CDX2, GATA4 and SATB2 positive nuclei were quantified using the spot function in [marls following calibration with human biopsy samples.
as §1

Test [3] relates to human gut tube spheroids. As to the kind of experiment: Patterning of human gut tube spheroids (pSMAD1/5/8 and SATB2 staining). The format is cell-based. Here is the method:
Generation of human midgut/hindgut spheroids. Human intestinal organoids were generated and maintained as previously described (Watson et al., 2014). Human embryonic stem cells and induced pluripotent stem cells were grown in feeder-free conditions in six-well Nunclon surface plates (Nunc) coated with Matrigel (basement membrane matrix, BD Biosciences) and maintained in mTESR1 media (Stem Cell Technologies). For induction of definitive endoderm (DE), human ES or iPS cells were passaged with Accutase (Invitrogen) and plated at a density of 100,000 cells per well in a Matrigel-coated, Nunclon surface 24-well plate. […]
as §2, §3

In test [4] the test system is IPSC72.3 inducible NEUROG3 line organoids. As to the kind of experiment: NEUROG3 induction of enteroendocrine cells in organoids. The test is classed as cell-based, human. As to conditions: DOX pulse, additional 7 days in culture. The method, then: Generation of NEUROGENIN3 inducible line. To generate a doxycycline inducible NEUROG3 line, Applicant transduced IPSC 72.3 cells with pINDUCER21-NEUROG3 lentivirus and selected using 250 µg/mL of G418. Both the IPSC 72.3 cell line and the inducible NEUROG3 have been described previously (McCracken et al., 2014). Stably transduced cells were differentiated into mid/hindgut spheroids and then patterned into HIOs or HCOs. Spheroids were grown for 28 days and were pulsed with 0.5 ug/mL of doxycycline for 8 hrs. At day 35, organoids were collected and were analyzed by QPCR and IF.

The mark [5] stands for this setting: 28-day old organoids after initial 3 day treatment.

Regarding “BMP2: exogenous recombinant human BMP2, BMP activator used to generate HCOs”, in the test on organoid mesenchyme, the “HOXA13 expression in mesenchyme” value is listed as “high levels HOXA13” and the “HOXD3 expression / proximal identity of mesenchyme” value is reported as “decreased expression of HOXD3”. Moreover, the “HOXA13 induction in the presence of the SHH inhibitor Cyclopamine” value in the test with human gut tube spheroids [1] (BMP+Cyclopamine treated organoids after 3 days) was “sufficient to induce HOXA13”. The “HOX gene expression (RNA-seq)” value with human gut tube spheroids [1] (gut tube spheroids treated for 3 days) was “down regulation of anterior HOX genes and up regulation of posterior HOX genes”. Moreover, the “epithelial morphology of transplanted organoids” value with transplanted organoids is recorded as “contained crypts but lacked villi”. The “SATB2 expression after re-patterning with BMP2” value in test [2] (3-day NOGGIN-treated spheroids shifted to BMP2-containing media for 3 days) was “did not express SATB2”. Moreover, in test [2] (setting [5]), the “Levels of ONECUT1 (marker of proximal small intestine)” value is “absent” and the “SATB2 in the epithelium” value is on record as “broadly expressed in nearly all of the CDX2+ epithelial cells”. Also, the “HOXB13 and HOXD13 posterior patterning” value in test [2] (28-day old organoids, prolonged culture in vitro) is on record as “maintained posterior patterning”. The “MUC5B staining (colon-specific goblet cell marker)” value in test [2] (28-day organoids) is recorded as “present”. For the same substance, the “goblet cells by intracellular MUC2 staining” value in test [2] (at 28 days) was “high numbers of goblet cells”. In addition, in the test with human gut tube spheroids [3] (3 days of treatment, compared to NOGGIN and control cultures), the “SATB2 protein in the epithelium” value is on record as “high levels of SATB2 protein”. Further, in the test with human gut tube spheroids [3] (spheroids treated for 12 hours, 100 ng/mL), the “BMP signaling levels by nuclear pSMAD1/5/8 staining” value is recorded as “rapid accumulation of pSMAD158”. Moreover, the “INSL5 positive cells (colonic EEC marker) after NEUROG3 induction” value in test [4] is recorded as “only observed INSL5 positive cells in BMP2 treated organoids”.
